Assay results taken from patent publication US20080023859A1, “Glycopeptides and Temperature-Responsive Micelles” (Toagosei Co., Ltd., priority 2003, published 2008).

Tests used:
[1] = Measurement of micelle formation by dynamic light scattering (particle diameter); format: physicochemical; details: for temperature at which micelle/aggregate was formed / micelle diameter: DLS in solution
[2] = Molecule aggregation of gas-liquid interfacial monolayer (π-A curves, LB film-forming apparatus); format: physicochemical; details: gas-liquid interface monolayer, temperature increased to 45° C.

Substance | temperature at which micelle/aggregate was formed [1] [°C] | micelle diameter [1] [nm] | micelle diameter ([1]; at 25° C. or more) [μm] | repetition of micelle formation on temperature cycling ([1]; temperature varied between 15° C. and 35° C. for 15 minutes, repeated, diameters measured at 15° C. and 35° C.) | molecular occupancy of π-A curve [2]
Ac-Val-Pro-Gly-Val-Gly-Val-Pro-Gly-Val-Gly-pAP-Man [Compound 8] | ≥ 35 | – | – | – | –
NH2-Glu(pAP-Man)-Val-Pro-Gly-Val-Gly-Val-Pro-Gly-Val-Gly-pAP-Man [Compound 4] | – | 400 | – | – | –
NH2-Val-Pro-Gly-Val-Gly-Val-Pro-Gly-Val-Gly-pAP-Man [Compound 1] | ≥ 25 | – | 2 | at least five times | became smaller
